Our source for the inhibition values is patent US7514571B2, “Bicyclo derivative” (Kyorin Pharmaceutical Co., Ltd., priority 2004, dated 2009).

By UniProt entry, the sequences of proteins in these tests, tags left out. Residues count along the entry.
UniProt P28843, 37-760 limits assumed: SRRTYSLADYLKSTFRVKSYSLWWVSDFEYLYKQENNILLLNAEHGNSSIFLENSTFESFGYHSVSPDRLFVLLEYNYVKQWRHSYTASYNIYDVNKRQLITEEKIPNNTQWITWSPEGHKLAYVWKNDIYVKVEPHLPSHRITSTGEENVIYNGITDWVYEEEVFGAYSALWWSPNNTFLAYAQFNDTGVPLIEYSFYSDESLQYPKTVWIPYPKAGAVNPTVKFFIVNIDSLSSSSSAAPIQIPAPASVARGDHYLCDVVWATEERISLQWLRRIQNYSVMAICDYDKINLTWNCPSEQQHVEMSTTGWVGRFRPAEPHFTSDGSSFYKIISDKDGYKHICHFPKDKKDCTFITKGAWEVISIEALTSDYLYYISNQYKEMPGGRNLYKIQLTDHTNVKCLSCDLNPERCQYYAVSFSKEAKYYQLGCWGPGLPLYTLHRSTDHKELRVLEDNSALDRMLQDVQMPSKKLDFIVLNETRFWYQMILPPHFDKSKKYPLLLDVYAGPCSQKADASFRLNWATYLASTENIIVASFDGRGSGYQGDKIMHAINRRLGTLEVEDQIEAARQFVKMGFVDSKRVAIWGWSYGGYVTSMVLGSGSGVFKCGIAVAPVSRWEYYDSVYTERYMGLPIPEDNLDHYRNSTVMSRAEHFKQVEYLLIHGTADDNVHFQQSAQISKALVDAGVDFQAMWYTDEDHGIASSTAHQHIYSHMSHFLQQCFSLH

A word on the inhibition: it is how much of the control response was suppressed. A low value points to a weak effect.

In the experiment the target is T1, plasma dipeptidylpeptidase IV (Mus musculus, UniProt P28843).
T1 construct: The blood samples were centrifuged at 6000 rpm for 2 minutes to separate plasma; from tissue; host or cells: plasma of male ICR mice (Charles River Laboratories Japan)
In words: Inhibition of plasma dipeptidylpeptidase IV activity in mice by oral administration. The experiment is classed as in vivo. Particulars: male ICR mice, 0.1 mg/mL suspension at 10 mL/kg, 30 minutes after administration. The protocol: Each compound was suspended in 0.3% sodium carboxymethylcellulose to a concentration of 0.1 mg/mL. The preparation was orally administered to 8 weeks old male ICR mice (Charles River Laboratories Japan) at a dose of 10 mL/kg. Using an EDTA 2K-treated capillary tube, blood samples were collected from the tail vein before administration and 30 minutes after administration. The blood samples were centrifuged at 6000 rpm for 2 minutes to separate plasma. […] The inhibition was determined from the decrease in the enzymatic activity from the initial activity (% inhibition={(activity before administration−activity after administration)/(activity before administration)}×100).

`N#C[C@@H]1CCCN1C(=O)CNC12CC3CC(CC(O)(C3)C1)C2` [Compound A, (2S)-1-[[(3-hydroxy-1-adamantyl)amino]acetyl]-2-cyanopyrrolidine, reference compound] came in with an inhibition at 1 mg/kg of 81%.
